The text below walks through data of patent US8877741B2, “Pyrrolidine derivatives, pharmaceutical compositions and uses thereof” (Boehringer Ingelheim International GmbH, priority 2013, dated 2014).

The chains behind the UniProt entries cited, without tags or fusion partners. Residues count along the entry.
UniProt O00763, 129-2458: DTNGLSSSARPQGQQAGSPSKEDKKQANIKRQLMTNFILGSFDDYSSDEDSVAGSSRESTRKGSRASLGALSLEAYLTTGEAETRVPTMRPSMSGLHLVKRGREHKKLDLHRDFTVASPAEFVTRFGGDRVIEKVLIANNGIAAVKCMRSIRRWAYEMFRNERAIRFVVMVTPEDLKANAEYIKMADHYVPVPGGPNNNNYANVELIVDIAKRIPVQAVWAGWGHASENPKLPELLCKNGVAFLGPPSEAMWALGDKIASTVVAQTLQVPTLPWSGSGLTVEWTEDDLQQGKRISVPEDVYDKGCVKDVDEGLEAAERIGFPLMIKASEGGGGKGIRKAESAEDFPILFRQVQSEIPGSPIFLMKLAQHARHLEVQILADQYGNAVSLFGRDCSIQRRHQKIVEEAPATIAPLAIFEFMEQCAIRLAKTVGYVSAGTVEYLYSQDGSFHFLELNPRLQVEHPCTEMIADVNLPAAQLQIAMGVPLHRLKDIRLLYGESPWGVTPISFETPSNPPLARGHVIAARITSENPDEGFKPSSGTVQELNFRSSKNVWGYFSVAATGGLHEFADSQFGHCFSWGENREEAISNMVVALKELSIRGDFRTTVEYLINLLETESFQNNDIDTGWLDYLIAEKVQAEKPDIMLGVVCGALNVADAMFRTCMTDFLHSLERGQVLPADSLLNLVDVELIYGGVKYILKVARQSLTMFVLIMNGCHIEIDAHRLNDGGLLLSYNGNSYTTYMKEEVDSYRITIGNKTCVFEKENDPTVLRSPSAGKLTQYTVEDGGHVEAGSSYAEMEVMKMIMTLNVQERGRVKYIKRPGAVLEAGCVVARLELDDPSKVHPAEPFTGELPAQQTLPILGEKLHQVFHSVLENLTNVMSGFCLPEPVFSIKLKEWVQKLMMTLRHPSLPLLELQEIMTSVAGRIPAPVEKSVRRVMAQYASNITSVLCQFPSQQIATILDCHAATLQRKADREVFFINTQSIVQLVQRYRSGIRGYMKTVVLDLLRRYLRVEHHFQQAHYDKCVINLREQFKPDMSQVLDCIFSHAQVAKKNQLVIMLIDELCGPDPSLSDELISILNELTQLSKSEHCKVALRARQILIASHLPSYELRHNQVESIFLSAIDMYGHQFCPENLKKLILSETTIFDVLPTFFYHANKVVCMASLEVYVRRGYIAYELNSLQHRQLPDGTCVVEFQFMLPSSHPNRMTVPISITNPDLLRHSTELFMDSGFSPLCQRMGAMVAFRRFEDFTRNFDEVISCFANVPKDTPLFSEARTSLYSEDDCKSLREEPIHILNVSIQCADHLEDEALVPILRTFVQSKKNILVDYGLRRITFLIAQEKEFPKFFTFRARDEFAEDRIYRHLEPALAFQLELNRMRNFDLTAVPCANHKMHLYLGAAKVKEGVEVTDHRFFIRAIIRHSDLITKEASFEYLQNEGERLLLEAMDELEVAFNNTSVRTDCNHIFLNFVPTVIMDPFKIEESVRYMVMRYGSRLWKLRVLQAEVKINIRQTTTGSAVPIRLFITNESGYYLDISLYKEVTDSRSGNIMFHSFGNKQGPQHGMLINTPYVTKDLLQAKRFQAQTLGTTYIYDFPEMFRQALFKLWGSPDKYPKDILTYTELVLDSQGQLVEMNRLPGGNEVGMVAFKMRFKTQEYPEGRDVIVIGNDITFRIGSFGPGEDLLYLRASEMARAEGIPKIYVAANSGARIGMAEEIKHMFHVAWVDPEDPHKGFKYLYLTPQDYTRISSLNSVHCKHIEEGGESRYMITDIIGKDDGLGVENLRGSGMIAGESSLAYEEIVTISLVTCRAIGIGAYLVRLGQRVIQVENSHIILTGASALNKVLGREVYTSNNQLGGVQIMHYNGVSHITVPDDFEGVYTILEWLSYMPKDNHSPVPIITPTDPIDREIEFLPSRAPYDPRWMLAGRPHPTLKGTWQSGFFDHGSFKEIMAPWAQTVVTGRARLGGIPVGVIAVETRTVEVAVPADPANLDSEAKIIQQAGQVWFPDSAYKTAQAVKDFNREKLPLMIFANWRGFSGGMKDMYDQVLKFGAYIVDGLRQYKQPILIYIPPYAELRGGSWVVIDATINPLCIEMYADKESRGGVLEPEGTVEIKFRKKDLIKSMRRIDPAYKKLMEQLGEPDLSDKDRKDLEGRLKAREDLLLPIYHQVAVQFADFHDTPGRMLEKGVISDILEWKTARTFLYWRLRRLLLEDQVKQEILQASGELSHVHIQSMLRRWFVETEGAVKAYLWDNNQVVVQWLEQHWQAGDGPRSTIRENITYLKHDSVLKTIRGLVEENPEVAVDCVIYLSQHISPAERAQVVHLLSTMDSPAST

In general, IC50 refers to the concentration that gives 50% inhibition. A higher IC50 goes with weaker potency.

For this test, the target named is human ACC2 (Homo sapiens (Human), UniProt O00763). The experiment in a line: ACC2 assay, spectrophotometric 384 well assay (NADH-linked kinetic method). It is filed as biochemical. The settings on record: human ACC2 construct lacking the 128 N-terminal amino acids; coupled lactate dehydrogenase/pyruvate kinase reaction, 340 nm, 25° C. The procedure: Spectrophotometric 384 Well Assay
Malonyl CoA formation by acetyl CoA carboxylases is stoichometrically linked to the consumption of ATP. ACC2 activity is measured in a NADH-linked kinetic method measuring ADP generated during the ACC reaction using a coupled lactate dehydrogenase/pyruvate kinase reaction.
For biological testing, a human ACC2 construct which lacks the 128 amino acids at the N-terminus for increased solubility (nt 385-6966 in Genbank entry AJ575592) is cloned. The protein is then expressed in insect cells using a baculoviral expression system. Protein purification is performed by anion exchange.
All compounds are dissolved in dimethyl sulfoxide (DMSO) to a concentration of 10 mM.
The enzymatic reaction is then started by addition of a mixture of NADH, acetyl Coenzyme A (both 2000 μM f.c.) and ATP (500 uM f.c.). The decrease of the optical density (slope S) is then determined at 25° C. at a wavelength of 340 nm over 15 minutes in a spectrophotometric reader.
Each assay microtiter plate contains wells with vehicle instead of compound as controls for the non-inhibited enzyme (100% CTL; ‘HIGH’) and wells without acetyl-CoA as controls for non-specific NADH degradation (0% CTL; ‘LOW’).
The slope S is used for calculation of % CTL=(S(compound)−S(‘LOW’))/(S(‘HIGH’)−S(‘LOW’))*100. […]

For the compound `CC(C)Oc1cc(N2CCC(Oc3ccc([C@H](C)NC(=O)C4CC(F)C4)cc3)C2)ccn1` (some centres unmarked) [Example 2.14], the IC50 was found to be 410 nM.
For the compound `CCN(C)C(=O)N[C@@H](C)c1ccc(OC2CCN(c3ccnc(OCC(F)F)c3)C2)cc1` (some centres unmarked) [Example 3.15], inhibition was half-maximal at 411 nM (IC50).
